{
  "sequences": {"note": "By UniProt entry, the sequences of proteins in these tests, tags left out.", "UniProt P48736, whole entry": "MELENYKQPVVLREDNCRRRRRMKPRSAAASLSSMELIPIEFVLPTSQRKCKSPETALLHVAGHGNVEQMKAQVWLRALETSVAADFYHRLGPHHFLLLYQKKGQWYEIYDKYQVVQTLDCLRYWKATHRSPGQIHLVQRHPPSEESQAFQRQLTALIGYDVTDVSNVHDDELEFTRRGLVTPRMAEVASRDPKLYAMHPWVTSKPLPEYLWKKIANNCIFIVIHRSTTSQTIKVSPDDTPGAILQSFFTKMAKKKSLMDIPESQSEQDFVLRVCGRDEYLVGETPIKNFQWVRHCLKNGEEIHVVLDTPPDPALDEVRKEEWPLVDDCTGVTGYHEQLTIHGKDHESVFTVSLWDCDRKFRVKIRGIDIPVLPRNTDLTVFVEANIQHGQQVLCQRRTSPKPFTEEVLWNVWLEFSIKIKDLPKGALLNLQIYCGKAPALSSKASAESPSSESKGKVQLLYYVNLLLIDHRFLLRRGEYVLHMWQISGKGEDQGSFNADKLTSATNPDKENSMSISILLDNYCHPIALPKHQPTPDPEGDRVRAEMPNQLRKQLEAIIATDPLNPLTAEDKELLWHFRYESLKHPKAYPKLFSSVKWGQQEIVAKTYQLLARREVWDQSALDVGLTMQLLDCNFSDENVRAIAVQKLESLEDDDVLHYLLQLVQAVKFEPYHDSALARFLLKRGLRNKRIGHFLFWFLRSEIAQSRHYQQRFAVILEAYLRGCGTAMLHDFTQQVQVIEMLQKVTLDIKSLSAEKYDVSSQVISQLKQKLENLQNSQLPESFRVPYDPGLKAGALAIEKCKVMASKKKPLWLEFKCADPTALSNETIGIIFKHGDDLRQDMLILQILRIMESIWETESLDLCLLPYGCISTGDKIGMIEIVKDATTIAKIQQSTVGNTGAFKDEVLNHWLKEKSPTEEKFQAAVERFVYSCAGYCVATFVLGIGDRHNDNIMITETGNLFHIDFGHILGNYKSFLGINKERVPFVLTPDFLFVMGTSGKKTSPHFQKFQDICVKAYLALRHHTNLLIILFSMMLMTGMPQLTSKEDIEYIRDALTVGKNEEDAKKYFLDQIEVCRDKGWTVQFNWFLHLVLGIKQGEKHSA"},
  "source": "patent US11541059B2",
  "target": "PI3K γ (Homo sapiens (Human), UniProt P48736)",
  "test": "PI3-Kinase Promega ADP-Glo Max assay",
  "conditions": "ratio of biochemical IC50s",
  "data": [
    {"smiles": "Cc1ccnc2c(C(=O)N[C@@H](C)c3cc4cccc(C#Cc5cnn(C)c5)c4c(=O)n3-c3ccccc3)c(N)nn12", "values": [
      {"measurement": "PI3K δ/PI3K γ IC50 (selectivity)", "value": "X (X = 10 to <50)"}
    ]}
  ]
}
